Test results from US9669035B2, “Combinations comprising PDE 2 inhibitors such as 1-aryl-4-methyl-[1,2,4]triazolo-[4,3-A]]quinoxaline compounds and PDE 10 inhibitors for use in the treatment of neurological of metabolic disorders” (Janssen Pharmaceutica NV, priority 2012, dated 2017).
Values joined by “and” are separate entries in the source; they are usually repeats but may differ in a detail not shown here. Equal values may be shown once. Where a name gives a salt, the structure may show the parent alone.

What was measured:
[1] = test system: d-Amphetamine-induced hyperlocomotion in rats; assay: d-Amphetamine-induced hyperlocomotion in rats: potentiation of the effect of MP-10; assay type: in vivo; conditions: Rattus norvegicus, sc, 1 h, read-out: ED50 for activity levels <2500 cm (potentiation of MP-10)
Description: At a predefined time interval before measuring motor activity, the rats were pretreated with test compound or solvent (10 ml/kg, p.o. or s.c.) and placed in individual cages. Thirty min before starting the locomotor activity test, the rats were challenged with d-amphetamine (1.25 mg/kg, s.c.) in combination with MP-10 (2.5 mg/kg, s.c.), both given as a single injection (10 ml/kg, s.c.). Motor activity was measured over a period of 30 min in microprocessor-based motor activity arenas (closed gray PVC cylinders with a height of 39 cm and a diameter of 31 cm) and analyzed using the Noldus Ethovision XT Video Tracking System (Version 7.0.418; Noldus, Wageningen, The Netherlands). The total distance traveled (cm) was calculated. A total distance traveled <2500 cm was adopted as all-or-none criterion for potentiation of the effect of MP-10 (6.3% false positives in a control population of 412 solvent-pretreated rats).

[2] = test system: cGMP levels in the rat brain; conditions: in vivo, hydrochloride

With `CCCCOc1cncc(-c2nnc3c(C)nc4ccc(CN5CCOCC5)cc4n23)c1` [Compound B-1a, 1-(5-Butoxypyridin-3-yl)-4-methyl-8-(morpholin-4-ylmethyl) [1,2,4]triazolo[4,3-a]quinoxaline hydrochloride] the ED50 at 2.5 mg/kg [1] was 0.51 mg/kg and the “mean nmol cGMP/ml” value [2] was 11.6 nmol cGMP/ml and 16.0 nmol cGMP/ml.
